Reference: US12060433B2, “CD73 inhibitor and A2A/A2B adenosine receptor inhibitor combination therapy” (Incyte Corporation, priority 2020, dated 2024)

Amino acid sequences for entries named in this document (tags omitted). A change or cut given only in a name is not applied to a line headed by its entry.
UniProt P29275, whole entry: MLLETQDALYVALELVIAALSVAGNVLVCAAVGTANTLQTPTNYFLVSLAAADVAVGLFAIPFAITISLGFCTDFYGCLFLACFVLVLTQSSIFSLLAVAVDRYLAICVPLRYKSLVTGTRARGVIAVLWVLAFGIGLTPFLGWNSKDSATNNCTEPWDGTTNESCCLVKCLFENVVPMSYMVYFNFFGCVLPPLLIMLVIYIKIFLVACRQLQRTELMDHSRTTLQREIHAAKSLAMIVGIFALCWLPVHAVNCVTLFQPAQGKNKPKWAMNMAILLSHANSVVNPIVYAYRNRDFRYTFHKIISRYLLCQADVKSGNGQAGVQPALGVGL

Experiments:
[1] = biological target: human adenosine A2B receptor (stably transfected HEK-293 cells) (Homo sapiens, UniProt P29275); experiment: Adenosine A2B receptor cyclic AMP GS assay; assay type: cell-based; conditions: read-out: A2B_cAMP_EC50; agonist NECA at 12 nM; cAMP accumulation; tested form: TFA
[2] = biological target: Adenosine A2A receptor (Tag-Lite Adenosine A2A labeled cells) (Homo sapiens, UniProt P29274); experiment: A2A Tag-lite HTRF assay (displacement of fluorescent antagonist ligand); conditions: read-out: A2A_Ki; fluorescent ligand 12.5 nM, ligand Kd 1.85 nM; tested form: TFA

| SMILES | EC50 [1] [nM] | Ki [2] [nM] |
| --- | --- | --- |
| N#Cc1cccc(-c2nc(N)n3nc(Cn4nnc(-n5cccn5)n4)nc3c2-c2ccncn2)c1 | < 10 | < 10 |
| N#Cc1cccc(-c2nc(N)n3nc(Cn4nnc(-c5ccccn5)n4)nc3c2-c2ccncn2)c1 | < 10 | < 10 |
